Only a part is listed here, and it is no random draw. Records with an inconclusive call do not appear. Activity calls are given as the source filed them. Cut-off read from the data, not from the text of the source: active = binding response below about 49% or above about 150%; inconclusive = no clear call, values can overlap the other calls; inactive = in between.

Amino acid sequences for entries named in this document (tags omitted).
UniProt P09471, whole entry: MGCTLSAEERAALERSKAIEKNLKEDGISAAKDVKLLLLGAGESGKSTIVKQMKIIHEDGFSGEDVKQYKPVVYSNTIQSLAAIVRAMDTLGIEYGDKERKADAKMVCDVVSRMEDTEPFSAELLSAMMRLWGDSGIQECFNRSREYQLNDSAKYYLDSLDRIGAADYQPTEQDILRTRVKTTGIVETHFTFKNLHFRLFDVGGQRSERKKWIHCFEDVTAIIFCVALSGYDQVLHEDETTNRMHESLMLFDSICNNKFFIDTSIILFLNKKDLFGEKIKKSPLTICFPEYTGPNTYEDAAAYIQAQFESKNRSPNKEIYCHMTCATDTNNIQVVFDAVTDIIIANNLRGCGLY

This experiment deals with Guanine nucleotide-binding protein G(o) subunit alpha (Homo sapiens) (UniProt P09471). Put plainly: RGS7-Galphao binding modulators, primary screen, biochemical, multiplexed bead flow cytometry (AID 1439).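 Note: fluorescent Galphao held in activated GDP-AlF4 state binding bead-coupled RGS7.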 The conditions noted are these: at 10 µM, actives lie on both sides. Background: A flow cytometer gives signals particle by particle.
As for `COc1ccc(NC2CCN(CCc3ccccc3)CC2)c(OC)c1`, the binding response (% of control) is inactive: 103%.

With `O=C(NCC1(N2CCOCC2)CCCCC1)c1cc2ccccc2o1`, the binding response (% of control) is active: 177%.

Take `CCOC(=O)N1CCC(Nc2ccc(OC)cc2)CC1`: the binding response (% of control) was inactive: 99.2%.

For `O=C(OC1CN2CCC1CC2)C1c2ccccc2Oc2ccccc21` (stereo not drawn), the binding response (% of control) is inactive: 101%.

With `COc1ccc(C(=O)NCC2(N3CCCCC3)CCCCC2)c(OC)c1OC`, the binding response (% of control) is inactive: 100%.

For the molecule `COc1ccc(CN(CCCl)CCCl)cc1Cl`, the binding response (% of control) is inactive: 94.2%.

Turning to `CC(C)c1ccc(NC2CCN(C(=O)OC(C)(C)C)CC2)cc1`, the binding response (% of control) is inactive: 99%.

Take `COc1ccc(NC2CCN(C(=O)OC(C)(C)C)CC2)cc1`: the binding response (% of control) is inactive: 96.5%.

For `CN1CCN(CCOC(=O)C(O)(c2ccccc2)c2ccccc2)CC1`, the binding response (% of control) is inactive: 99.8%.

In the case of `O=C(NCC1(N2CCOCC2)CCCCC1)c1cc(=O)[nH]c2ccccc12`, the binding response (% of control) was inactive: 103%.

On to `O=C(NCC1(N2CCCCC2)CCCCC1)c1cccc([N+](=O)[O-])c1`, for which the binding response (% of control) is inactive: 101%.

With `N#CC1(Nc2ccccc2)CCN(CCc2ccccc2)CC1`, the binding response (% of control) was inactive: 100%.

For the molecule `c1ccc(CN2CCC(Nc3ccccc3)CC2)cc1`, the binding response (% of control) is inactive: 98.4%.

Regarding `N#Cc1ccc(C(=O)NCC2(N3CCCCC3)CCCCC2)cc1`, the binding response (% of control) was inactive: 103%.

For `N/C(=N\O)c1c(N)no[n+]1[O-]`, the binding response (% of control) was inactive: 99.6%.

Regarding `O=C(OC1CN2CCC1CC2)C1c2ccccc2C=Cc2ccccc21` (stereo not drawn), the binding response (% of control) was inactive: 102%.

For `COc1ccc(C(=O)NCC2(N3CCOCC3)CCCCC2)cc1OC`, the binding response (% of control) was inactive: 133%.

Take `CCC(CO)(C(=O)OC1CN2CCC1CC2)c1ccccc1` (stereo not drawn): the binding response (% of control) was inactive: 98.9%.

For the molecule `CCOc1ncccc1C(=O)NCC1(N2CCOCC2)CCCCC1`, the binding response (% of control) is inactive: 122%.

As for `CC(C)(C)OC(=O)N1CCC(Nc2ccccc2)CC1`, the binding response (% of control) was inactive: 96%.

For `CCN1CCC(Nc2cccc(F)c2)CC1`, the binding response (% of control) was inactive: 98.7%.

For the molecule `CN(C)c1ccc(C(=O)NCC2(N3CCCCC3)CCCCC2)cc1`, the binding response (% of control) is inactive: 98%.

Regarding `Fc1ccccc1NC1CCN(Cc2ccccc2)CC1`, the binding response (% of control) was inactive: 95.2%.

The values are drawn from PubChem BioAssay AID1439 (NMMLSC, 2008).
